# Antibody variant affinities, Ab-91 heavy chain, assay 2

Binding partner: SARS-CoV-2 spike HR2 peptide, sequence PDVDLGDISGINAS.

Ab-91 is the parent antibody, in scFv form: VL, then three GGGGS repeats, then VH. The light chain is unchanged in all variants.
VL: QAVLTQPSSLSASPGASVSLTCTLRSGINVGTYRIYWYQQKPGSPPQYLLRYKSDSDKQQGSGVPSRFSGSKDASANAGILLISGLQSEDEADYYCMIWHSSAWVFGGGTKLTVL
VH: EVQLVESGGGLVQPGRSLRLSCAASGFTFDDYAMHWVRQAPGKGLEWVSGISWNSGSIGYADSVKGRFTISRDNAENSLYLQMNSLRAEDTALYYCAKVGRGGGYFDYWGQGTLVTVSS

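The starting antibody came from a phage panning campaign against this peptide. The library (AAYL51) carries one to three amino acid substitutions per variant, with no insertions or deletions. AlphaSeq pools MATa yeast showing the antibodies with MATalpha yeast showing the peptide. Binding brings cells together so that they mate, and sequencing counts the barcode pairs among the diploids. The ratio of observed to expected reads was calibrated, replicate by replicate, on BCL2-family standards whose Kd was known from biolayer interferometry. Each pool was mated in three replicate cultures.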

Positions count from residue 1 of the parent VH; D107N puts N in place of D.
Values are log10 of the apparent Kd in nM; lower means stronger binding.
Where no diploid with the target was found in that replicate, the entry reads "nd": below detection, most likely a poor binder, though not proof of it.
Nonspecific signal, from three strains lacking the peptide, appeared in 21% of pairings of library AAYL51, centred on 4.54 (5% of these signals below 3.26); values are not corrected for it. Also given: how often the same scFv was detected with the empty control strains, with their mean in brackets.

changes	replicates, log10 nM	empty controls
D107N	4.94 / 3.99 / nd	4 of 9 (4.74)
F27Y N54P Y60W	4.20 / nd / 5.10	6 of 9 (4.80)
N54Q Y60L G102M	nd / nd / nd	0 of 9
D30L M34W S57M	4.92 / nd / nd	3 of 9 (5.41)
G26H F29K S57G	5.55 / 5.14 / 4.73	6 of 9 (4.60)
G50I G56C S57I	5.17 / 6.32 / nd	4 of 9 (5.28)
G56P S57A D62H	nd / nd / nd	1 of 9 (4.00)
G26M F27H Y60F	nd / nd / nd	1 of 9 (4.86)
I51C G59L	nd / nd / nd	0 of 9
R101G D107P	nd / nd / nd	1 of 9 (3.05)
A61G V99H	nd / nd / nd	0 of 9
Y32L V64S V99A	nd / nd / nd	0 of 9
M34H F106K D107Y	5.21 / nd / 4.99	1 of 9 (4.39)
G26L T28A Y32K	nd / nd / nd	3 of 9 (4.69)
S52H N54M G59W	nd / nd / nd	1 of 9 (2.94)
T28D W53I G59W	3.76 / 4.65 / nd	5 of 9 (5.38)
T28I Y60V G103E	nd / nd / nd	1 of 9 (4.18)
T28A W53V G102V	3.27 / nd / nd	1 of 9 (4.28)
F27P F29T F106M	6.37 / nd / nd	4 of 9 (4.75)
Y32K I51M S63P	4.42 / 5.06 / nd	1 of 9 (3.34)
I58Y G100R G103W	nd / 5.60 / nd	2 of 9 (4.03)
Y32H A33E F106R	nd / nd / nd	0 of 9
F29D Y32F Y60P	nd / nd / nd	1 of 9 (4.04)
M34T I51W A61Y	nd / 6.07 / nd	0 of 9
T28K S63W Y105K	3.48 / 3.45 / 3.40	7 of 9 (4.47)
M34G G50W Y108V	5.48 / 5.53 / nd	4 of 9 (5.24)
T28I S55G G100A	1.18 / 1.43 / 1.54	1 of 9 (3.76)
F29L A33V I51D	nd / 4.00 / nd	2 of 9 (3.36)
S57D G104V F106N	1.07 / 1.05 / 0.43	2 of 9 (4.95)
G50C I58T D62C	nd / nd / nd	0 of 9
S52C G56Q A61F	4.57 / nd / nd	2 of 9 (4.07)
V99W G103H D107R	nd / 3.99 / nd	3 of 9 (4.73)
Y32L W53S G59M	nd / nd / nd	1 of 9 (4.07)
W53D S63L G102F	5.09 / 4.55 / nd	3 of 9 (4.36)
D30I S63L F106W	nd / nd / nd	0 of 9
T28Y N54Y	4.87 / 5.64 / nd	2 of 9 (3.44)
D31S H35N S57M	4.95 / nd / nd	1 of 9 (3.31)
F29R G103S	nd / nd / nd	1 of 9 (3.97)
F27D S52E G104H	nd / nd / nd	1 of 9 (4.42)
F27D H35K F106Q	nd / 3.39 / nd	0 of 9
D31Y D62M Y108I	5.59 / nd / nd	0 of 9
D31Q Y60R	nd / nd / nd	0 of 9
A33D S55I V64M	3.70 / nd / 3.79	0 of 9
Y60T	3.55 / 3.32 / nd	2 of 9 (4.13)
I51R Y105H F106P	5.36 / nd / nd	0 of 9
S55G S63W G103R	nd / nd / nd	1 of 9 (4.90)
F29C S55P D107I	nd / nd / nd	1 of 9 (3.63)
G26W I58N V99I	nd / nd / nd	2 of 9 (5.57)
H35S Y60T F106N	4.00 / 5.16 / 4.76	4 of 9 (4.52)
G103C Y108I	1.90 / 1.92 / 1.43	4 of 9 (4.29)

The measurements come from Engelhart et al. 2022 (doi:10.1038/s41597-022-01779-4) through the FLAb antibody collection.